The target in this test is mGluR5 (Rattus norvegicus, UniProt P31424). The test is described as follows: functional mGluR5 antagonist assay. In kind it is cell-based. As to conditions: identified from the functional HTS.

The chains behind the UniProt entries cited, without tags or fusion partners. Residues count along the entry.
UniProt P31424, 21-1203: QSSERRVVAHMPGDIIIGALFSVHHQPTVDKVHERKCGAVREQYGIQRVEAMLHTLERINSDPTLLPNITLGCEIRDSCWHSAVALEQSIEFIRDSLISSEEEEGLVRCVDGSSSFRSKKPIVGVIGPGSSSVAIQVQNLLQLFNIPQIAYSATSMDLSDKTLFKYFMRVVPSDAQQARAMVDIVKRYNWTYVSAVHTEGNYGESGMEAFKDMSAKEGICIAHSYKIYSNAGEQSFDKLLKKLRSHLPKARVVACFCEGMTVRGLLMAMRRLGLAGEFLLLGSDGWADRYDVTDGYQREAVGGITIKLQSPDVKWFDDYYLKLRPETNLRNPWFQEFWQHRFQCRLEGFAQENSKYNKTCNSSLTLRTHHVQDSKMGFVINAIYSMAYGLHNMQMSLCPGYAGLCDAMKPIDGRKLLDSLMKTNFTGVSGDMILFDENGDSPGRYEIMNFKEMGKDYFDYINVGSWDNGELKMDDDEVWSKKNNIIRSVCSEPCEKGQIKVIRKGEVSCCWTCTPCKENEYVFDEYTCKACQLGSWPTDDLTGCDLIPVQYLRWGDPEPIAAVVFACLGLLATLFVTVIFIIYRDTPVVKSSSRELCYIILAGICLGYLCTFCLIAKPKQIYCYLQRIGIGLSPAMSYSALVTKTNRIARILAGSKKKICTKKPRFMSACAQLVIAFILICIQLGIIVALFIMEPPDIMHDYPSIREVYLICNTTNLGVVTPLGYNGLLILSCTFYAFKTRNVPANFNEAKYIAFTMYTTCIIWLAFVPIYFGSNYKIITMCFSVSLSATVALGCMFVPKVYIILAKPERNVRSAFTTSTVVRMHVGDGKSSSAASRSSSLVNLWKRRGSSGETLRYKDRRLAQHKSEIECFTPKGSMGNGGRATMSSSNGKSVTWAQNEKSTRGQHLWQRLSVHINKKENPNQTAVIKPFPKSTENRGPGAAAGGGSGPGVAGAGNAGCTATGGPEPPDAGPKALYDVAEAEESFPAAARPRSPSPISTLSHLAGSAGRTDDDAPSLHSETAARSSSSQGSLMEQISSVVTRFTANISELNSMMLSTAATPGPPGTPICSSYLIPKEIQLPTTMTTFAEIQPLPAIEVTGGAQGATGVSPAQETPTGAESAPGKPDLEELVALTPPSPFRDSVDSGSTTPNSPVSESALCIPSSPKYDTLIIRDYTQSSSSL

Molecules are shown by their SMILES.

The text below walks through data of article PMC3177605 (Bioorganic & medicinal chemistry letters, 2009).

`Cc1cc(C)c2c(N)c(C(=O)c3ccc(F)cc3)oc2n1` [Cmpd 12, (3-amino-4,6-dimethylfuro[2,3-b]pyridine-2-yl)(4-fluorophenyl)methanone]: the “IC50 in functional HTS” value is given as “submicromolar”.
